Data from ChEMBL document CHEMBL1144851, “Opioids and efflux transporters. Part 2: P-glycoprotein substrate activity of 3- and 6-substituted morphine analogs” (J Med Chem, 2008).

Amino acid sequences for entries named in this document (tags omitted). A change or cut given only in a name is not applied to a line headed by its entry.
UniProt P41145: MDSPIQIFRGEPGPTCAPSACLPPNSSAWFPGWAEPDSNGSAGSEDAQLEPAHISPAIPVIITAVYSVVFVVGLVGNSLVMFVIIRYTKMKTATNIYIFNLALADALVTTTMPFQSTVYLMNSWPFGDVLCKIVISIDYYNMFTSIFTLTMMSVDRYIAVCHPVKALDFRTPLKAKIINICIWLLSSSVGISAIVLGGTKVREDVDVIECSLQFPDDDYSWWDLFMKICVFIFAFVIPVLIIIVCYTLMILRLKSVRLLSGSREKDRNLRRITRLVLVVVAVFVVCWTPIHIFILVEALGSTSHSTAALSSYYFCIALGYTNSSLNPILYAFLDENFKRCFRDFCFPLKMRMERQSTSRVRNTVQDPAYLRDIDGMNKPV

Target: Kappa-type opioid receptor (Homo sapiens, UniProt P41145)
Assay: Displacement of [3H]diprenorphine from recombinant kappa opioid receptor expressed in CHO cells
Format: cell-based

In the case of `COc1ccc2c3c1O[C@H]1[C@@H](O)C=C[C@H]4[C@@H](C2)N(C)CC[C@@]341` [CODEINE], the Ki is reported as 25.4 µM.
